# Yeast mating assay B: variants of the scFv Ab-14

Target peptide (SARS-CoV-2 spike, HR2 region): PDVDLGDISGINAS

Each scFv is VH, the linker GGGGSGGGGSGGGGS, VL, as in the parent Ab-14, and differs from it in the CDRs of the heavy chain only.
VH: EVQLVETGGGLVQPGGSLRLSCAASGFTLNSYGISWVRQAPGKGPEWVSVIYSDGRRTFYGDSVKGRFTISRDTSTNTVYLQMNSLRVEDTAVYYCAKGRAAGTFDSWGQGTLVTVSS
VL: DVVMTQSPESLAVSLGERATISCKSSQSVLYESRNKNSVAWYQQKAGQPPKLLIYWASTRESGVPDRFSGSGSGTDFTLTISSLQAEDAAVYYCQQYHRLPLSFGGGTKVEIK

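The parent was found by panning a naive human phage display library on the peptide. Designed CDR sequences, proposed from the first random library and measured here. Several design methods are mixed in this list. Affinity was read by AlphaSeq, a pooled yeast mating assay with surface-displayed partners. The frequency of each diploid, read from paired DNA barcodes, reflects how well the two displayed proteins bind. Read counts were normalised to the haploid input and turned into Kd by a linear fit to BCL2-family pairs of known affinity, for each replicate. There are six technical replicates.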

Each variant is given by its three heavy chain CDRs, as the data file delimits them; those of the parent are GFTLNSYGIS, VIYSDGRRTFYGDSVK, GRAAGTFDS. Variants here have more than six changes. Affinities are written as log10 Kd with Kd in nM; a lower number is a better binder. Averages over replicates are reported, and they cover detected replicates only. An entry "nd" has no value in the source: the pair was not observed among the diploids in that replicate. This suggests poor binding but is not conclusive. Order: sorted from the lowest average up, undetected variants last. Of ten entries with the parent sequence, four were seen in most replicates (averages 0.34 to 2.37), three in one and three in none, so single entries are noisy. In the paper, a design with two or fewer of six values counts as a poor binder. Values of this round are not directly comparable with the first-round values of the same sequences. Nonspecific signal, from three strains lacking the peptide, appeared in 1% of pairings of all heavy chain designs, centred on 2.08 (5% of these signals below 0.84); values are not corrected for it. For each scFv, signals with the empty controls are counted beside the result.

- GFDLNDYGIS / VIYADGRRTAYIDSVK / GEVAGTFDI: -0.89, -1.39, -1.73, nd, -1.81, -0.18 (mean -1.20; controls 0 of 18)
- GFDLNEYGIS / VIYADGRRTFYTDSVK / GEFAGTFDM: -0.72, -0.54, -0.89, -1.19, -1.01, -1.00 (mean -0.89; controls 0 of 18)
- GFDLDEYGIS / VIYADGMRTAYADSVK / GNVAGTFDE: -0.58, -0.48, -0.38, -0.83, -0.98, -0.98 (mean -0.70; controls 0 of 18)
- GFDLNEYGIS / VIYADGVRTAYIDSVK / GHAAGTFDV: -0.47, -0.64, -0.86, -0.76, -0.75, -0.50 (mean -0.66; controls 0 of 18)
- GFDLEEYGIS / VIYADGKRTAYSDSVK / GNVAGTFDV: -0.57, -0.51, -0.65, -0.83, -0.83, -0.39 (mean -0.63; controls 0 of 18)
- GFDLNEYGIS / VIYADGMRKAYVDSVK / GNVAGTFDV: -0.81, -0.51, -0.58, -0.72, -0.54, -0.47 (mean -0.61; controls 0 of 18)
- GFDLNEYGIS / VIYADGMRTAYVDSVK / GNQAGTFDT: -0.62, -0.70, -0.55, -0.73, -0.68, -0.34 (mean -0.60; controls 0 of 18)
- GFDLEDYGIS / VIYADGKRTAYADSVK / GETAGTFDV: -0.76, -0.91, -0.20, -0.97, -0.51, -0.16 (mean -0.58; controls 0 of 18)
- GFDLNEYGIS / VIYADGVRTAYSDSVK / GNQAGTFDV: nd, -0.47, -1.84, 0.00, -0.75, 0.17 (mean -0.58; controls 0 of 18)
- GFDLNEYGIS / VIYADGRRTQYIDSVK / GQVAGTFDS: -0.53, 0.15, -0.70, -0.32, -1.19, -0.77 (mean -0.56; controls 0 of 18)
- GFDLDEYGIS / VIYADGKRTAYADDVK / GNVAGTFDM: 1.25, -1.02, -1.17, -0.75, -1.06, -0.55 (mean -0.55; controls 0 of 18)
- GFDLNEYGIS / VIYADGKRTYYADSVK / GEVAGTFDQ: -0.32, -0.57, -0.27, -0.65, -1.20, -0.25 (mean -0.54; controls 0 of 18)
- GFSLDEYGIS / VIYADGRRTFYADSVK / GNQAGTFDS: -0.28, -0.58, -0.74, -0.55, -0.61, -0.51 (mean -0.54; controls 0 of 18)
- GFDLNEYGIS / VIYADGSRTAYADSVK / GQNAGTFDI: -0.31, -0.69, -0.56, -0.39, -0.32, -0.45 (mean -0.45; controls 0 of 18)
- GFDLNEYGIS / VIYADGMRTAYANSVK / GETAGTFDV: -0.39, -0.22, -0.39, -0.85, -0.44, -0.37 (mean -0.44; controls 2 of 18)
- GFDLNEYGIS / VIYADGRRTFYADSVK / GHVAGTFVE: -0.29, -0.26, -0.35, -0.60, -0.44, -0.23 (mean -0.36; controls 1 of 18)
- GFDLNEYGIS / VIYADGQRTYYADSVK / GNVAGTFDT: -0.15, -0.33, -0.28, -0.65, -0.27, -0.32 (mean -0.33; controls 0 of 18)
- GFDLNEYGIS / VIYADGRRTAYIDSVK / GEAAGTFDN: -0.57, -0.46, -0.56, -0.06, -0.24, -0.01 (mean -0.32; controls 0 of 18)
- GFDINEYGIS / VIYADGRRTFYTDSVK / GQNAGTFDV: -0.37, -0.38, -0.59, -0.60, 0.23, -0.15 (mean -0.31; controls 0 of 18)
- GFDLNEYGIS / VIYADGRRTAYADDVK / GNQAGTFDV: 0.28, -0.26, -0.34, -0.59, -0.56, -0.26 (mean -0.29; controls 0 of 18)
- GFDLNEYGIS / VIYADGRRTFYSDSVK / GVFAGTFDV: 0.08, -0.32, -0.42, -0.20, -0.69, -0.08 (mean -0.27; controls 1 of 18)
- GFDLNEYGIS / VIYADGMRTFYIDSVK / GEIAGTFDV: -0.29, -0.23, 0.00, -0.59, -0.23, -0.22 (mean -0.26; controls 0 of 18)
- GFDLNEYGIS / VIYADGMRTAYTDSVK / GNEAGTFDY: -0.42, -0.40, -0.28, -0.04, -0.32, -0.01 (mean -0.24; controls 0 of 18)
- GFDLNEYGIS / VIYADGRRTSYIDSVK / GEAAGTFDL: -0.05, -0.11, -0.12, -0.50, -0.39, -0.21 (mean -0.23; controls 0 of 18)
- GFDLNEYGIS / VIYADGKRTFYTDSVK / GEVAGTFDV: -0.22, -0.19, -0.22, -0.03, -0.37, -0.21 (mean -0.21; controls 2 of 18)
- GFDLNEYGIS / VIYADGRRTQYIDSVK / GNEAGTFDQ: -0.08, -0.32, -0.45, -0.52, -0.15, 0.46 (mean -0.18; controls 2 of 18)
- GFDLEDYGIS / VIYADGRRTAYADSVK / GEQAGTFDV: -0.25, 1.35, -0.95, -0.15, -0.91, 0.08 (mean -0.14; controls 0 of 18)
- GFDLNEYGIS / VIYADGKRTYYADSVK / GENAGTFDQ: 0.02, -0.22, -0.23, 0.08, -0.40, -0.01 (mean -0.13; controls 1 of 18)
- GFDLNEYGIS / VIYADGMRTFYVDSVK / GQVAGIFNV: -0.08, -0.54, -0.07, -0.06, 0.02, 0.06 (mean -0.11; controls 0 of 18)
- GFDLNEYGIS / VIYADGQRTAYADSVK / GENAGTFDQ: -0.15, 0.16, -0.09, -0.08, -0.19, -0.23 (mean -0.10; controls 0 of 18)
- GFDLNEYGIS / VIYADGMRTVYSDSVK / GNVAGTFDL: -0.23, 0.58, -0.47, -0.37, 0.01, -0.09 (mean -0.10; controls 0 of 18)
- GFDLDEYGIS / VIYADGVRTAYSDSVK / GNVAGTFDV: 0.28, 0.01, 0.04, -0.08, -0.19, 0.30 (mean 0.06; controls 0 of 18)
- GFDLNEYGIS / VIYADGKRTAYADSVK / GNQAGTFDT: -0.96, nd, 0.01, 0.41, -0.16, 1.05 (mean 0.07; controls 0 of 18)
- GFDLDEYGIS / VIYADGSRTAYADDVK / GEVAGTFDV: 0.27, 0.02, nd, 0.15, 0.06, -0.01 (mean 0.10; controls 0 of 18)
- GFNLNEYGIS / VIYADGRRTFYTDDVK / GEFAGTFDI: 0.11, 0.22, -0.02, 0.00, 0.06, 0.29 (mean 0.11; controls 0 of 18)
- GFDLNEYGIS / VIYADGKRTAYSDSVK / GENAGTFDQ: 0.44, -0.51, -0.17, -0.63, 0.82, 0.84 (mean 0.13; controls 0 of 18)
- GFDLNEYGIS / VIYADGRRTFYADSVK / GQSAGTFTL: 0.99, 0.49, 0.31, 0.38, 0.38, 0.77 (mean 0.55; controls 0 of 18)
- GFEIQEFGIS / VIYADGMRTNYSENVK / GTLAGTFTT: nd, 2.47, 1.33, 0.67, 1.52, nd (mean 1.50; controls 0 of 18)
- GFDLNEYGIS / VIYADGLRTYYADSVK / GNNAGTFDV: 1.71, 1.90, 0.95, 2.02, 2.10, 0.82 (mean 1.58; controls 1 of 18)
- GFDLEEYGVS / VIYADGHRTQYSDNVK / GVESASIQN: nd, nd, nd, nd, nd, nd (controls 0 of 18)
- GFDLEEYGIS / VIYADGMRQMYAQNFK / GYNGSDGTV: nd, nd, nd, nd, nd, nd (controls 0 of 18)
- GFDIDEMGIS / VIYADGQRKAYTENVK / GNSMGMTVA: nd, nd, nd, nd, nd, nd (controls 0 of 18)
- GQDLAEYGIS / VIYADGKRTYYAQDVK / GTNVGQGDT: nd, nd, nd, nd, nd, nd (controls 0 of 18)
- GGDLNEYGIS / VIYADGVRKNYDDSVK / GQTGLVLYI: nd, nd, nd, nd, nd, nd (controls 0 of 18)
- GFNLDEYGIS / VIYADGRRTAYKDTVK / GVRTFEFDL: nd, nd, nd, nd, nd, nd (controls 0 of 18)
- GFSLDEYGIS / VIYADGLRTQYHNKVK / GLQGGIFDQ: nd, nd, nd, nd, nd, nd (controls 0 of 18)
- GFQLDEFGIS / VIYADGKRSSYVDDVK / GETTGAFSV: nd, nd, nd, nd, nd, nd (controls 0 of 18)
- GFSLNEYGIS / VIYADGTRMAYTNSVK / GLMGFVLGM: nd, nd, nd, nd, nd, nd (controls 0 of 18)
- GFVFDEYGIS / VIYADGKRQVYQDKVK / GENTGNFDT: nd, nd, nd, nd, nd, nd (controls 0 of 18)
- GFDLEEYGIS / VIYADGMRTTAIDKVK / GIAGGSFLV: nd, nd, nd, nd, nd, nd (controls 0 of 18)
- GFNLDEYGIS / VIYADGKRTFYADSVK / GEVAGTFDT: nd, nd, nd, nd, nd, nd (controls 0 of 18)
- GFDLQEYGIS / VIYADGLRSMVTNSVK / GNSGVMVLV: nd, nd, nd, nd, nd, nd (controls 0 of 18)

The first 7 variants above that were never detected:

| CDR-H1 | CDR-H2 | CDR-H3 | replicates, log10 nM | log10 Kd (nM), mean | control signals |
|---|---|---|---|---|---|
| GFDLEEYGVS | VIYADGHRTQYSDNVK | GVESASIQN | nd, nd, nd, nd, nd, nd | nd | 0 of 18 |
| GFDLEEYGIS | VIYADGMRQMYAQNFK | GYNGSDGTV | nd, nd, nd, nd, nd, nd | nd | 0 of 18 |
| GFDIDEMGIS | VIYADGQRKAYTENVK | GNSMGMTVA | nd, nd, nd, nd, nd, nd | nd | 0 of 18 |
| GQDLAEYGIS | VIYADGKRTYYAQDVK | GTNVGQGDT | nd, nd, nd, nd, nd, nd | nd | 0 of 18 |
| GGDLNEYGIS | VIYADGVRKNYDDSVK | GQTGLVLYI | nd, nd, nd, nd, nd, nd | nd | 0 of 18 |
| GFNLDEYGIS | VIYADGRRTAYKDTVK | GVRTFEFDL | nd, nd, nd, nd, nd, nd | nd | 0 of 18 |
| GFSLDEYGIS | VIYADGLRTQYHNKVK | GLQGGIFDQ | nd, nd, nd, nd, nd, nd | nd | 0 of 18 |

From the AlphaSeq antibody data of Li et al. 2023 (doi:10.1038/s41467-023-39022-2), copy in the FLAb collection.